Measured values as given in ChEMBL document CHEMBL1154985, “Discovery of a novel series of potent S1P1 agonists” (Bioorg Med Chem Lett, 2010).

Amino acid sequences for entries named in this document (tags omitted).
UniProt P21453, whole entry: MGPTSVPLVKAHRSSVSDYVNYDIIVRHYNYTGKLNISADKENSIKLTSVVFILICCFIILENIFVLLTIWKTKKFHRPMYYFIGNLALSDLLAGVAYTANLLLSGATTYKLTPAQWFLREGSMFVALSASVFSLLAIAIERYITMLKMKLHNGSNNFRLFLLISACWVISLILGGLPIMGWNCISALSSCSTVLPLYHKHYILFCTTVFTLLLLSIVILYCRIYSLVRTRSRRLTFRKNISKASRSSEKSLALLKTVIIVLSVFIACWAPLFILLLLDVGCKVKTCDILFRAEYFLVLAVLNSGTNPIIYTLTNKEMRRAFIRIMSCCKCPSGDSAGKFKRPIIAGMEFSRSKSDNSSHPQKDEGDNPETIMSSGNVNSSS

Target: Sphingosine 1-phosphate receptor 1 (Homo sapiens, UniProt P21453)
Assay: Agonist activity at S1P1 receptor expressed in CHO cells after 60 mins by [35S]-GTPgammaS binding assay
Assay type: functional, cell-based

EC50	Structure (SMILES)
7 nM	CCCN(CCC)c1cc(C(=O)Nc2ccc3[nH]ncc3c2)ncn1
> 20000 nM	O=C(Nc1ccc(CCO)cc1)c1cc(NC2CCCCC2)ncn1
